Laboratory results published in patent US20190369122A1, “METABOLIC DISORDERS” (priority 2016, published 2019).

Test system: CONVR mice
Assay: Metabolic cages (PhenoMaster) in CONVR mice
Conditions: 100 μg i.p. twice a day for 3 days
Procedure: Mice were singly housed for two days before being transferred to the PhenoMaster cages, and allowed an additional 2 days to acclimatize to the new cage before taking measurements. Parameters were automatically measured every 15 min for 5 days. During the measurements, the mice had free access to water and food. […] Oxygen consumption (VO2) was calculated from measurements of oxygen and carbon dioxide concentration in the reference cage compared to the sample cage. Measurements of oxygen consumption and energy expenditure were adjusted to lean body mass, which was determined by MRI (EchoMRI, Houston, Tex., USA).

`O=C(O)CCc1cnc[nH]1` [imidazole propionate] was tested, and the “body weight, liver and WAT weight or food intake” value was “without any significant effect”.
